In experiment [1] the target is T1, TGR5 (NCI-H716 cell line) (Homo sapiens, UniProt Q8TDU6).
T1 sequence (Q8TDU6 1-330): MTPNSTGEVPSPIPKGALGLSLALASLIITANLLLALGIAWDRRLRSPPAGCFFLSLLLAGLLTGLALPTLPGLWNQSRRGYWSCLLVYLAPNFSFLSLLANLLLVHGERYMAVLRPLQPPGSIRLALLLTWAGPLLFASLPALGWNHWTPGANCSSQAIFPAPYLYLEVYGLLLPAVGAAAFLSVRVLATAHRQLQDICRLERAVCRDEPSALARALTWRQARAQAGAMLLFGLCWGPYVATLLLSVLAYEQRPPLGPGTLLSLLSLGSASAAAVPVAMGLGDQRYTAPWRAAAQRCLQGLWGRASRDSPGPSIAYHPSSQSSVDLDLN
Description: NCI-H716 cAMP Agonist EC50 Determination.

In the next experiment the target is T2, TGR5 (STC1 cell line) (Mus musculus, UniProt Q80SS6).
T2 sequence (Q80SS6 1-329): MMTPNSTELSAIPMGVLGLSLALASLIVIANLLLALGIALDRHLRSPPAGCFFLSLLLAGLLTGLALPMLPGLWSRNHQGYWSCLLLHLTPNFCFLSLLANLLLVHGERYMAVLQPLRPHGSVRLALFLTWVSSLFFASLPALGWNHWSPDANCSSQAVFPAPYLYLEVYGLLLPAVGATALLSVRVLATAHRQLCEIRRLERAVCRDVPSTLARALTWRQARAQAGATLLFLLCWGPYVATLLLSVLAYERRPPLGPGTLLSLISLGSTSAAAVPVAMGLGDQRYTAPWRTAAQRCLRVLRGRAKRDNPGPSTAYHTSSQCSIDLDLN
Description: STC1 cAMP Agonist EC50 Determination.

Consider one compound from patent US10077241B2 (Janssen Pharmaceutica NV, priority 2014, dated 2018).

pEC50: −log10 of the molar value.

The term pEC50 denotes the EC50 on a negative log10 scale, so that one unit is a factor of ten. A lower pEC50 goes with a large EC50.

Turning to `COc1cc(C2(C)CCCc3nc(SCc4c(F)cc(C#N)cc4F)n(-c4ccc(F)cc4)c32)ccc1F` (centres unmarked) [Example 119, 3,5-difluoro-4-(((7-(4-fluoro-3-methoxyphenyl)-1-(4-fluorophenyl)-7-methyl-4,5,6,7-tetrahydro-1H-benzo[d]imidazol-2-yl)thio)methyl)benzonitrile], the pEC50 was below 4.30 in experiment [1] and 6.74 on TGR5 (STC1 cell line).
